In PubChem BioAssay AID620 (Sanford-Burnham Center for Chemical Genomics, 2007) one finds cytotoxicity data, which are given here for 32 compounds.

This is a selection; strong and weak results do not stand in their true shares. Activity calls are given as the source filed them. Rule as the data show it: active = cytotoxicity above about 50%; inactive = the rest.

A short description of the test: cytotoxicity in HT1080 fibrosarcoma cells, cell-based, fluorescence readout (AID 620).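 Also: cells exposed to compound overnight then 4 h with Alamar Blue; 0% = vehicle DMSO and 100% = killing control.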 The conditions noted are these: HT1080 viability, at 10 µM, hits give high values.
In the case of `Cc1nc2ccc3ccccc3c2o1.O=[N+]([O-])c1cc([N+](=O)[O-])c(O)c([N+](=O)[O-])c1`, the cytotoxicity is inactive: -6.1%.

Regarding `COc1ccccc1OP(C)(=O)Nc1ccc(C)c(C)c1` (configuration not stated), the cytotoxicity was inactive: -2.7%.

For the compound `Cc1c(NP(C)(=O)Oc2ccc(C(C)C)cc2)c(=O)n(-c2ccccc2)n1C` (configuration not stated), the cytotoxicity was inactive: -2%.

In the case of `CCc1ccc(OP(C)(=O)O)cc1`, the cytotoxicity is inactive: 10.8%.

Take `CP(=O)(Nc1ccccn1)Oc1ccccc1` (configuration not stated): the cytotoxicity was inactive: 14.6%.

In the case of `COc1ccccc1OP(C)(=O)Nc1ccc(C)cc1C` (configuration not stated), the cytotoxicity was inactive: -5.3%.

In the case of `CN(C)CCOC(=O)C(O)(c1ccccc1)C1CCCC1` (configuration not stated), the cytotoxicity was inactive: 0.2%.

Regarding `COc1ccc(OP(C)(=O)Nc2ccccn2)cc1` (configuration not stated), the cytotoxicity was inactive: 10.5%.

Take `CP(=O)(Nc1ccc(Cl)cc1)Oc1ccc(F)cc1` (configuration not stated): the cytotoxicity is inactive: 10.4%.

As to `CC(C)(C)c1ccc(OP(C)(=O)O)cc1`, the cytotoxicity was inactive: 10.7%.

As to `CCN(CC)CC(O)COC(=O)C(O)(c1ccccc1)C1CCCCC1` (configuration not stated), the cytotoxicity is inactive: 0.8%.

For the compound `CP(=O)(Oc1ccccc1)N1CCOC1=O` (configuration not stated), the cytotoxicity was inactive: 0.4%.

`COc1ccccc1OP(C)(=O)Nc1c(C)n(C)n(-c2ccccc2)c1=O` (configuration not stated): the cytotoxicity is inactive: 22.3%.

`CP(=O)(OC12CC3CC(CC(C3)C1)C2)OC12CC3CC(CC(C3)C1)C2`: the cytotoxicity was inactive: -46.9%.

With `CN(C)CCOC(=O)C(O)(c1ccccc1)C1CCCCC1` (configuration not stated), the cytotoxicity is inactive: 0.9%.

Take `CP(=O)(Nc1ccc2c(c1)OCCO2)Oc1ccccc1` (configuration not stated): the cytotoxicity is inactive: -2.3%.

Turning to `Cc1ccccc1NP(C)(=O)Nc1ccccc1C`, the cytotoxicity is inactive: 11.1%.

With `CCOP(C)(=S)SCC(=O)NC(C)(CC)C(=O)O` (configuration not stated), the cytotoxicity was inactive: 5.8%.

In the case of `CP(=O)(Nc1ccccc1F)Oc1ccccc1` (configuration not stated), the cytotoxicity was inactive: 2.7%.

Turning to `CCN(CC)CCCOC(=O)C(O)(c1ccccc1)C1CCCCC1` (configuration not stated), the cytotoxicity is inactive: -11.1%.

`CP(=O)(Nc1ccccc1)Oc1ccc(F)cc1` (configuration not stated): the cytotoxicity was inactive: 16.4%.

Take `Cc1cc(C)cc(OP(C)(=O)Nc2ccccn2)c1` (configuration not stated): the cytotoxicity was inactive: -1.4%.

With `Cc1ccc(C)c(NP(C)(=O)Oc2ccccc2)c1` (configuration not stated), the cytotoxicity was inactive: 15.8%.

Take `Cc1nc2ccc3ccccc3c2s1.O=[N+]([O-])c1cc([N+](=O)[O-])c(O)c([N+](=O)[O-])c1`: the cytotoxicity is inactive: 5.9%.

For the compound `COc1ccccc1OP(C)(=O)Nc1c(C)cccc1C` (configuration not stated), the cytotoxicity is inactive: 22.6%.

Consider `CP(=S)(Nn1cnnc1)Oc1ccccc1` (configuration not stated), for which the cytotoxicity was inactive: 5.9%.

Take `CCOP(C)(=S)SCC(=O)NC(C)C(=O)O` (configuration not stated): the cytotoxicity was inactive: -19%.

For the compound `CP(=O)(Nc1ccccn1)Oc1ccc(Cl)cc1` (configuration not stated), the cytotoxicity is inactive: -9.7%.

Turning to `CP(=O)(NC(=O)Nc1ccccc1)Oc1ccccc1` (configuration not stated), the cytotoxicity is inactive: -2.8%.

As to `COc1ccccc1OP(C)(=O)Nc1ccc(C)cc1` (configuration not stated), the cytotoxicity is inactive: -5.9%.

Consider `Cc1ccc(NP(C)(=O)Oc2ccccc2)c(C)c1` (configuration not stated), for which the cytotoxicity was inactive: -2.3%.

With `COc1ccc(OP(C)(=O)Nc2cccc(F)c2)cc1` (configuration not stated), the cytotoxicity was inactive: -12.6%.
